Consider one molecule from patent publication US7973066B2, “Pyrrolo[1,2-A]imidazoledione effective in the treatment of peripheral neurotoxicity induced by chemotherapeutic agents” (Neurotune AG, priority 2006, dated 2011).

This data set concerns HT29 human colon carcinoma cell line. Briefly: In vitro cytotoxicity and combination studies, ATPlite. The following applies: HT29 cells, 72 hours. The protocol:
In order to verify if the use of NiK-13317 for the treatment of CIPN would not affect the efficacy of anticancer treatments, the effect of NiK-13317 on cytotoxicity of known anticancer drugs was examined in vitro using HT29 human colon carcinoma cell line.
After 72 hours, cells were lysed and cell metabolic activity was quantified with ATPlite kit (Perkin Elmer Life Science) following manufacturer's recommendations. The ATP present in all metabolically active cells catalyses a reaction of transformation of D-luciferin by Luciferase, producing a luminescent signal measured using VICTOR^3™ Multi Label Reader (Perkin Elmer). Results were expressed as percentage of luminescence produced (i.e. ATP produced) compared to the control. Complete concentration-response curves with anticancer drugs were constructed in order to identify the concentrations producing a submaximal and a maximal cytotoxic effect, to be utilized for combination experiments.
On the technique in general: Cellular ATP, detected with luciferase, serves as a proxy for viable cell number.

As to `O=C1[O][Pt]2([NH][C@@H]3CCCC[C@H]3[NH]2)[O]C1=O` [oxaliplatin], the “concentration of maximal cytotoxic effect” value is 100 µM.
